Measured affinities in a library of Ab-14 heavy chain variants

From the AlphaSeq antibody data of Li et al. 2023 (doi:10.1038/s41467-023-39022-2), copy in the FLAb collection.

The target is the same throughout: PDVDLGDISGINAS, from the HR2 region of SARS-CoV-2 spike.

Each scFv is VH, a 15-residue (Gly4Ser)3 linker, VL, as in the parent Ab-14, and differs from it in the CDRs of the heavy chain only.
VH: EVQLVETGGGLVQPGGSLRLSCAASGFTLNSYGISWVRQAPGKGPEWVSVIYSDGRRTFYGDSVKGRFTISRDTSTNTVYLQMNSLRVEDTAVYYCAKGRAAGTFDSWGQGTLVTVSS
VL: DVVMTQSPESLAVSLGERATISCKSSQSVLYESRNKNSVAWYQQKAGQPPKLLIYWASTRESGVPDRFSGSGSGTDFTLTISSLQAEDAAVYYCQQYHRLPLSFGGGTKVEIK

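Phage display of a naive human antibody library on the peptide gave the parent. These sequences belong to a second round, designed from the earlier measurements on random variants of the parent. Their group label is 14H_GPLM_Gibbs (GPLM: also part of the Gaussian process libraries; Gibbs: Gibbs sampling; a sequence that several methods proposed may carry one label only). The scFvs were displayed on barcoded MATa yeast, the peptide on MATalpha yeast. Binding brings cells together so that they mate, and sequencing counts the barcode pairs among the diploids. The ratio of observed to expected reads was calibrated, replicate by replicate, on BCL2-family standards whose Kd was known from biolayer interferometry. There are six technical replicates.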

Each variant is given by its three heavy chain CDRs, as the data file delimits them; those of the parent are GFTLNSYGIS, VIYSDGRRTFYGDSVK, GRAAGTFDS.
Affinities are written as log10 Kd with Kd in nM; a lower number is a better binder.
The mean shown is taken over the replicates in which the pair was detected.
Where no diploid with the target was found in that replicate, the entry reads "nd": below detection, most likely a poor binder, though not proof of it.
A sequence measured in both rounds can read differently, since the two assays cover different ranges.
The authors averaged sequences with at least three values out of six and counted those with two or fewer as poor binders.
Background: pairings of all heavy chain designs with three empty control strains gave a value in 1% of cases (median 2.08, 5th percentile 0.84). Values in that range, when seen in few replicates, are hard to tell from nonspecific mating. Also given: how often the same scFv was detected with the empty control strains, with their mean in brackets.
Of ten entries with the parent sequence, four were seen in most replicates (averages 0.34 to 2.37), three in one and three in none, so single entries are noisy.

| # | CDR-H1 | CDR-H2 | CDR-H3 | replicates, log10 nM | mean, log10 nM | control signals |
|---|---|---|---|---|---|---|
| 1 | GFTLNSYGIS | VIYSDGKRTFYIDSVK | GQAAGTFDT | 1.69 / nd / 2.83 / 1.47 / nd / nd | 1.99 | 0 of 18 |
| 2 | GFDLNSYGIS | VIYSDGRRTFYKDSVK | GWAAGTFDS | 1.45 / 1.62 / 0.89 / 1.86 / 1.58 / 1.00 | 1.40 | 0 of 18 |
| 3 | GFTLNSYGIS | VIYSDGRRTFYADRVK | GNAAGTFDS | nd / nd / 1.27 / 0.85 / 1.22 / nd | 1.11 | 0 of 18 |
| 4 | GFNLNTYGIS | VIYSDGRRTFYGDSVK | GRQAGTFDS | 1.49 / 0.24 / 0.69 / 0.83 / 1.05 / 2.16 | 1.08 | 0 of 18 |
| 5 | GFDLNSYGIS | VIYSDGRRTFYGDSVK | GRTAGTFDI | 0.18 / -0.15 / 0.84 / -0.28 / -0.17 / -0.03 | 0.07 | 0 of 18 |
| 6 | GFTLNSYGIS | VIYSDGKRTFYGDSVK | GRNAGTFDT | 0.24 / -0.02 / -0.13 / 0.15 / 0.68 / 0.86 | 0.30 | 0 of 18 |
| 7 | GFSLNSYGIS | VIYSDGRRTFYSDSVK | GRQAGTFDS | 0.35 / -0.07 / 0.03 / -0.37 / 0.02 / 0.27 | 0.04 | 0 of 18 |
| 8 | GFVLNSYGIS | VIYSDGRRTFYADSVK | GKEAGTFDS | 0.35 / 0.57 / 0.38 / 0.40 / 0.23 / 0.31 | 0.37 | 1 of 18 (1.86) |
| 9 | GFELNSYGIS | VIYSDGRRTFYGDSVK | GKEAGTFDS | 0.66 / 0.86 / 0.35 / 0.44 / 0.46 / 0.38 | 0.53 | 2 of 18 (2.79) |
| 10 | GFELNSYGIS | VIYSDGRRTFYADSVK | GQAAGTFDK | 0.03 / 0.09 / 0.45 / 0.64 / -0.06 / 0.75 | 0.32 | 0 of 18 |
| 11 | GFTLNSYGIS | VIYSDGRRTFYSDDVK | GQTAGTFDS | -0.20 / 0.55 / -0.29 / -0.26 / -0.51 / -0.24 | -0.16 | 0 of 18 |
| 12 | GFSLNSYGIS | VIYSDGRRTFYADSVK | GRLAGTFDN | -0.04 / -0.41 / 0.28 / -0.04 / 0.48 / -0.17 | 0.02 | 0 of 18 |
| 13 | GFSLNSYGIS | VIYSDGRRTFYIDSVK | GTQAGTFDS | 0.61 / 0.19 / 0.37 / 0.26 / 0.48 / 0.27 | 0.36 | 0 of 18 |
| 14 | GFHLNSYGIS | VIYSDGRRTFYVDSVK | GQTAGTFDS | nd / nd / 1.32 / nd / nd / nd | 1.32 | 1 of 18 (2.15) |
| 15 | GFSLNNYGIS | VIYSDGRRTFYTDSVK | GQTAGTFDS | 0.15 / 0.08 / -0.06 / -0.45 / -0.32 / -0.02 | -0.10 | 1 of 18 (1.87) |
| 16 | GFSLNSYGIS | VIYSDGRRTFYTDSVK | GEAAGTFDK | 0.60 / 1.00 / 1.30 / 0.91 / 1.64 / 0.57 | 1.00 | 0 of 18 |
| 17 | GFSLNNYGIS | VIYSDGRRTFYGDSVK | GVAAGTFDS | 0.99 / 0.93 / 2.42 / 0.82 / 0.41 / 1.72 | 1.22 | 0 of 18 |
| 18 | GFSLNSYGIS | VIYSDGRRTFYQDSVK | GRLAGTFDS | 1.73 / 2.10 / 2.08 / 2.04 / nd / 2.22 | 2.03 | 0 of 18 |
| 19 | GFNLNSYGIS | VIYSDGRRTFYGDSVK | GRTAGTFDA | 1.11 / 0.42 / nd / 0.81 / 1.21 / 1.21 | 0.95 | 0 of 18 |
| 20 | GFTLNSYGIS | VIYSDGKRTFYGDSVK | GQTAGTFDS | 0.77 / 0.82 / 0.70 / 0.41 / 1.26 / 0.85 | 0.80 | 0 of 18 |
| 21 | GFSLNEYGIS | VIYSDGKRTFYIDSVK | GRAAGTFDS | 1.18 / 0.69 / 1.04 / 0.46 / 0.73 / 1.01 | 0.85 | 0 of 18 |
| 22 | GFELNSYGIS | VIYSDGRRTFYIDSVK | GQAAGTFDL | 1.32 / 0.71 / 0.73 / 1.10 / 0.91 / 1.29 | 1.01 | 0 of 18 |
| 23 | GFTLNSYGIS | VIYSDGRRTFYADSVK | GKEAGTFDS | -0.28 / 0.04 / 0.16 / -0.42 / -0.14 / -0.15 | -0.13 | 0 of 18 |
| 24 | GFSLNSYGIS | VIYSDGRRTFYVDSVK | GSTAGTFDF | 1.44 / 1.03 / 0.83 / 0.92 / 0.89 / 1.19 | 1.05 | 0 of 18 |
| 25 | GFNLNSYGIS | VIYSDGRRTFYADSVK | GWEAGTFDS | 0.95 / 1.04 / 0.43 / 0.59 / 0.97 / 0.54 | 0.75 | 0 of 18 |
| 26 | GFDLNSYGIS | VIYSDGKRTFYGDSVK | GQAAGTFDS | 0.47 / 0.27 / 0.84 / 0.31 / 0.23 / 0.46 | 0.43 | 0 of 18 |
| 27 | GFNLNSYGIS | VIYSDGRRTFYGDSVK | GWVAGTFDS | 0.95 / nd / 1.57 / nd / 1.47 / 2.70 | 1.67 | 0 of 18 |
| 28 | GFWLNSYGIS | VIYSDGRRTAYGDSVK | GRQAGTFDS | nd / nd / nd / nd / nd / 1.28 | 1.28 | 0 of 18 |
| 29 | GFSLNSYGIS | VIYSDGKRTFYGDSVK | GRNAGTFDS | 0.81 / 0.43 / 0.22 / 0.32 / 0.59 / 0.59 | 0.50 | 0 of 18 |
| 30 | GFELNSYGIS | VIYSDGKRTFYKDSVK | GRTAGTFDS | 1.03 / 2.21 / 1.14 / 1.57 / 0.43 / 1.55 | 1.32 | 0 of 18 |
| 31 | GFTLNSYGIS | VIYSDGKRTFYGDSVK | GQTAGTFDT | 0.84 / 0.63 / 0.32 / 0.92 / 0.58 / 1.16 | 0.74 | 0 of 18 |
| 32 | GFHLNSYGIS | VIYSDGRRTFYQDSVK | GNAAGTFDS | 0.84 / nd / nd / nd / nd / nd | 0.84 | 0 of 18 |